According to paper PMC9166766 (Experimental & Molecular Medicine, 2022):
Entries after “also recorded” stand apart in the source; their conditions may differ.

What was measured:
p38α = test: In vitro kinase assay, p38α; assay type: biochemical; details: GST-tagged peptide, 1 h, 30 °C, 50 μM ATP
Procedure: (§1) We used the purified GST-tagged peptides for the in vitro kinase assays with activated recombinant kinases obtained from Proqinase GmbH (Freiburg, Germany). We performed the kinase assays in reaction buffer (50 mM HEPES-NaOH, pH 7.5, 3 mM MgCl2, 3 mM MnCl2, 3 μM sodium orthovanadate, 1 mM dithiothreitol, 50 μM unlabeled ATP, 5 μCi ^32P-γ-ATP) for 1 h at 30 °C. We stopped the reaction by adding 5× sample buffer and separated the proteins using SDS-PAGE. The gel was stained with Coomassie Brilliant Blue, dried, and developed on X-ray film.
(§2) The phosphorylated threonine of the immunoprecipitated peptide with HA antibody was detected with [PXpTP] antibody. b In vitro kinase assays using purified GST-tagged CABIN1 peptide and PKC downstream kinases. c In vitro kinase assays using purified GST-tagged peptides and kinases included in the MAPK family. d Immunoprecipitation assays using Flag-MAPKs and HA-CABIN1 in HEK293T cells. e, f In vitro kinase assays using p38α and substituted CABIN1 peptides. g Jurkat T cells expressing HA-mCherry-tagged CABIN1 peptide were treated with 10 μM p38α inhibitors for 16 h. Immunoprecipitation was performed with HA antibody and detected by western blotting. h Phosphorylated threonine and peptide-bound CNA of g were measured using ImageJ, and the ratio of phosphorylation and calcineurin binding to the CABIN1 peptide was calculated (n = 6). […]

[1] = test system: calcineurin (CNA) phosphatase activity; test: Calcineurin cellular activity assay in Jurkat T cells; assay type: cell-based; details: HA-mCherry-tagged peptides, PMA and ionomycin
Procedure: (§3) We measured calcineurin phosphatase activity in vitro using a calcineurin phosphatase assay kit (BML-AK804, Enzo Life Sciences, Farmingdale, NY, USA). We incubated GST or GST-tagged peptides with CNA for 30 min at room temperature and then followed the manufacturer’s instructions. To measure endogenous calcineurin phosphatase activity, we transiently transfected Jurkat T cells with CAG-HA-mCherry-peptides by electroporation. After 24 h, we pretreated the Jurkat T cells with FK506 for 1 h before activating them with PMA and ionomycin. Next, we washed the cells with TBS buffer (20 mM Tris, pH 7.2, 150 mM NaCl), resuspended them with lysis buffer from the calcineurin cellular activity assay kit (BML-AK816, Enzo Life Sciences), and kept them on ice for 30 min. We collected the lysate supernatant and removed free phosphate by gel filtration using the Desalting Column Resin included in the kit. Next, we followed the manufacturer’s instructions.
(§4) Jurkat T cells expressing only HA-mCherry were used as a negative control, and cells treated with FK506 were used as a positive control. d In vitro calcineurin phosphatase activity assays using purified GST-tagged peptides. Purified GST was used as a negative control. […] Statistical differences were determined using one-way ANOVA. *p < 0.05, NS nonsignificant, NC negative control.

[2] = test system: CNA (calcineurin catalytic subunit); test: In vitro peptide competition assay (GST-tagged peptide / His6-tagged CNA); assay type: binding; details: competitor VIVIT 15-mer; molar ratio GST-peptide to competitor 1:50 to 1:400
[3] = test system: Jurkat T cells (T-cell activation gene mRNA); test: Real-time quantitative PCR of activated Jurkat T cells; assay type: cell-based; details: PMA and ionomycin, Supplementary Fig. 5a, b
Excerpt: We collected Jurkat T cells with QIAzol Lysis Reagent (Qiagen) to extract total RNA. We reverse transcribed cDNAs from isolated RNA using AMV Reverse Transcriptase and random hexamers. We performed real-time quantitative PCR for each cDNA using TB Green® Premix Ex Taq™ (TaKaRa, Kusatsu, Japan) on a CFX Connect Real-time PCR Detection System (Bio-Rad, Hercules, CA, USA) and normalized the expression to that of 18 S rRNA or GAPDH. Supplementary Table 1 describes the primers used.
Fig. 3 The CABIN1 peptide inhibits T-cell activation. a Heatmap of altered genes affected by FK506 treatment or CABIN1 peptide expression upon T-cell activation. b Gene Ontology analysis of cluster III. c mRNA expression levels of genes included in cluster III. d qRT-PCR data of genes in c. The experiment was independently repeated at least three times, and the data are presented as the mean ± standard deviation. Statistical differences were determined using two-tailed Student’s t-test. *p < 0.05, **p < 0.01, ***p < 0.001, NC negative control.

NFATC2 dephosphorylation = test: NFAT mobility shifting assay in Jurkat T cells; assay type: cell-based; details: HA-mCherry-tagged peptides, PMA and ionomycin 2 h, n = 7
Procedure: (§5) Jurkat T cells expressing GST-tagged peptides were treated with PMA and ionomycin for activation. […] For dephosphorylation of NFATC2, Jurkat T cells were treated with PMA and ionomycin for 2 h. c Hyper- and hypophosphorylated NFATC2 of b was measured using ImageJ, and the hypo/hyper ratio was calculated (n = 7). d Snapshot images of the activated Jurkat T cells expressing the indicated peptides and tNFATC2 were obtained using confocal microscopy. The expression and localization of peptides and tNFATC2 are shown as mCherry (red) and EGFP (green), respectively. Nuclei were stained with Hoechst (blue). Scale bar, 50 μm e Nuclear-localized tNFATC2 was measured by calculating the colocalization ratio between Hoechst (M1) and EGFP (M2). (NC and FK506, n = 10; CABIN1-L-1-2 and VIVIT 10-mer, n = 12) Data are representative of independently repeated experiments and presented as the mean ± standard deviation. Statistical differences were determined using a two-tailed Student’s t-test (a, c) or one-way ANOVA (e). ***p < 0.001, NC negative control.

[4] = test system: microbiota-dependent colorectal cancer; details: ref [36]; cited from earlier work
Excerpt: To overcome these side effects, researchers have developed alternative inhibitors that specifically perturb the calcineurin-NFAT pathway.

[5] = Protein stability of HA-mCherry-VIVIT peptides in Jurkat T cells (western blot, FACS); assay type: cell-based; details: HA-mCherry-tagged
tNFATC2 nuclear import = test: Nuclear localization of EGFP-tNFATC2 by confocal microscopy in Jurkat T cells; assay type: cell-based; details: 40 nM PMA and 1 μM ionomycin 4 h, FK506 0.5 μM, n = 10-12
Procedure: We transfected Jurkat T cells with the pCAG-EGFP-tNFATC2-IRES-mCherry-peptide by electroporation. After two days, we pretreated these cells with 0.5 μM FK506 for 30 min. Then, we treated them with 40 nM PMA and 1 μM ionomycin under culture conditions for 4 h. Before imaging by a confocal laser scanning microscope (Nikon, Tokyo, Japan), we treated the cells with 10 μg/ml Hoechst 33342 (Invitrogen, Waltham, MA, USA) to stain nuclei. Colocalization analysis of mCherry and Hoechst was performed with ImageJ and its plugin JACoP to measure the Manders coefficient[23],[24].
as §5, with “The expression and localization of peptides and tNFATC2 are shown as mCherry (red) and EGFP (green), respectively. Nuclei were stained with Hoechst (blue).” left out, “(NC and FK506, n = 10; CABIN1-L-1-2 and VIVIT 10-mer, n = 12) Data are representative of independently repeated experiments and presented as the mean ± standard deviation.” left out

[6] = test system: allogeneic islet transplantation in mice; details: ref [33], cited from earlier work
Excerpt: To overcome these side effects, researchers have developed alternative inhibitors that specifically perturb the calcineurin-NFAT pathway. […] These peptides compete to interact with CNA, implying that they bind to the same region and have the same mode of action (Fig. 4a). […] For instance, KSR2, another calcineurin substrate that interacts with calcineurin via the “LxVP” motif, is dephosphorylated by calcineurin in response to glucose ...

[7] = test system: NFAT transcriptional activity; test: NFAT-luc luciferase reporter assay in Jurkat T cells; assay type: cell-based; details: GST-tagged peptides, 40 nM PMA and 1 μM ionomycin 8 h, n = 3
Procedure: To measure the transcriptional activity of NFAT, we cotransfected Jurkat T cells with GST-tagged peptides and NFAT-luc by electroporation. After 24 h, we pretreated the cells with 0.5 μM FK506 for 1 h and then treated them with 40 nM PMA and 1 μM ionomycin for 8 h. For the mammalian two-hybrid assay, we cotransfected HEK293T cells with GAL4 DBD-tagged CABIN1, VIVIT, chimeric and substituted peptides, VP16 activation domain-tagged CNAβ2, and pG5-luc (luciferase reporter plasmid containing the GAL4-responsive promoter) for 24 h. We lysed the harvested cells with a luciferase assay lysis buffer (17 mM KH2PO4, 183 mM K2HPO4, pH 7.8, 0.2% [v/v] Triton X-100) and sonicated them briefly. We measured luciferase activity for each cell lysate using an Infinite M200 (Tecan, Männedorf, Switzerland). […]
Jurkat T cells expressing GST-tagged peptides were treated with PMA and ionomycin for activation. […] For dephosphorylation of NFATC2, Jurkat T cells were treated with PMA and ionomycin for 2 h. c Hyper- and hypophosphorylated NFATC2 of b was measured using ImageJ, and the hypo/hyper ratio was calculated (n = 7). d Snapshot images of the activated Jurkat T cells expressing the indicated peptides and tNFATC2 were obtained using confocal microscopy. […] Scale bar, 50 μm e Nuclear-localized tNFATC2 was measured by calculating the colocalization ratio between Hoechst (M1) and EGFP (M2). […]

JNK1 = test: In vitro kinase assay, JNK1; assay type: biochemical; details: GST-tagged peptide, 1 h, 30 °C, 50 μM ATP
Procedure: as §1, §2

ERK2 = test: In vitro kinase assay, ERK2; assay type: biochemical; details: GST-tagged peptide, 1 h, 30 °C, 50 μM ATP
Procedure: as §1, §2

[8] = test system: CNAβ2 (calcineurin catalytic subunit); test: Mammalian two-hybrid assay (VP16 AD-CNAβ2 and GAL4 DBD-peptides, pG5-luc) in HEK293T cells; assay type: cell-based; details: with or without 1 μM ionomycin
Procedure: To measure the transcriptional activity of NFAT, we cotransfected Jurkat T cells with GST-tagged peptides and NFAT-luc by electroporation. After 24 h, we pretreated the cells with 0.5 μM FK506 for 1 h and then treated them with 40 nM PMA and 1 μM ionomycin for 8 h. For the mammalian two-hybrid assay, we cotransfected HEK293T cells with GAL4 DBD-tagged CABIN1, VIVIT, chimeric and substituted peptides, VP16 activation domain-tagged CNAβ2, and pG5-luc (luciferase reporter plasmid containing the GAL4-responsive promoter) for 24 h. We lysed the harvested cells with a luciferase assay lysis buffer (17 mM KH2PO4, 183 mM K2HPO4, pH 7.8, 0.2% [v/v] Triton X-100) and sonicated them briefly. We measured luciferase activity for each cell lysate using an Infinite M200 (Tecan, Männedorf, Switzerland). In addition, we confirmed the expression level of the transfected proteins by Western blotting.
Fig. 1 The short peptide from the CABIN1 C-terminus is essential for interaction with calcineurin. a Schematic diagram and sequence of CABIN1 fragments. b, c A mammalian two-hybrid assay was performed using VP16 AD-CNAβ2 and GAL4 DBD-CABIN1 peptides (b CABIN1-14, -15, -S ~ L; c CABIN1-L-1 ~ L-1-4) in HEK293T cells. d Sequences of CABIN1-L-1-2, the VIVIT 10-mer and the chimeric peptide (top). A mammalian two-hybrid assay using these peptides was performed (bottom). […]

[9] = test system: calcineurin (CNA) phosphatase activity; test: In vitro calcineurin phosphatase activity assay; assay type: biochemical; details: purified GST-tagged peptides with CNA 30 min room temperature
Procedure: as §3, §4

calcineurin = details: ref [19]; cited from earlier work
Excerpt: The conventional calcineurin inhibitors FK506 and cyclosporin A have serious side effects. However, they are still widely used in autoimmune diseases and organ transplant patients due to their convenient dosing and effectiveness. Although several alternative calcineurin inhibitors have been developed over the past few decades, none have become clinical treatments thus far. The VIVIT peptide, an optimized peptide derived from the conserved “PxIxIT” sequence of the NFAT family, blocks the interaction between calcineurin and NFAT without affecting calcineurin phosphatase activity. Althoug ...

VIVIT peptide: optimized peptide derived from the conserved PxIxIT sequence of the NFAT family; 10-mer or 15-mer depending on test
phosphorylation by p38α (p38α): not | calcineurin phosphatase activity in cells [1]: did not | interference with interaction between GST-tagged CABIN1 peptide and His6-tagged CNA [2]: vice versa | NINJ1 and ZP4 expression upon T-cell activation [3]: unaffected | NFATC2 dephosphorylation / band shift (NFATC2 dephosphorylation): reduced the dephosphorylation of NFATC2, but its inhibitory effect was weaker than that of the CABIN1 peptide | development of microbiota-dependent colorectal cancer [4]: successfully suppressed the development of microbiota-dependent colorectal cancer | protein stability in cells [5]: the C-terminal glutamate repeats decreased protein stability; also recorded: dramatically less stable with C-terminal glutamate repeats | proportion of nuclear-localized tNFATC2 (tNFATC2 nuclear import): significantly higher proportion of nuclear-localized tNFATC2 than the cells coexpressing the CABIN1-L-1-2 peptide | insulin secretion ([6]; allogeneic islet transplantation): without reducing insulin secretion; also recorded: did not decrease insulin secretion | allogeneic islet transplantation result vs FK506 [6]: better results than FK506 on allogeneic islet transplantation in mice | NFAT luciferase activity [7]: repressed luciferase activity compared with the negative control | phosphorylation by JNK1 (JNK1): not | phosphorylation by ERK2 (ERK2): not | interaction with CNA, effect of 1 μM ionomycin [8]: did not affect the interaction | calcineurin phosphatase activity in vitro [9]: did not reduce the phosphatase activity of CNA in vitro | IC50 (in words) (calcineurin): high IC50 value
